{
  "source": "patent EP1635833B1",
  "about": "(priority 2003, dated 2004)",
  "key": {"[1]": {"system": "fentanyl cue"}, "[2]": {"system": "opioid-induced PCO2 increases", "experiment": "Respiratory depression: arterial blood PCO2 in rats", "details": "40 mg/kg s.c. Compound 95 added to the opioids (fentanyl, morphine), especially at the highest doses tested"}, "[3]": {"system": "opioid-induced PCO2 increases", "experiment": "Respiratory depression: arterial blood PCO2 in gerbils", "details": "10 mg/kg s.c. Compound 95 added to fentanyl 0.63 mg/kg s.c."}, "[4]": {"system": "opioid-induced PCO2 increases", "experiment": "Respiratory depression: arterial blood PCO2 in guinea pigs", "details": "Compound 95 added to fentanyl"}, "[5]": {"details": "Compound 95 at doses ranging from 0.63 to 40 mg/kg s.c."}},
  "data": [
    {"smiles": "Cc1cccc(C)c1NC(=O)CN1CCN(C2CCN(C(=O)c3cc(C(F)(F)F)cc(C(F)(F)F)c3)C(Cc3ccccc3)C2)CC1", "note": "(single isomer, unassigned)", "values": [
      {"measurement": "antagonism of the fentanyl cue", "setting": "[1]; [5]", "value": "nor any antagonism"},
      {"measurement": "generalization to the fentanyl cue", "setting": "[1]; [5]", "value": "did not show any generalization"},
      {"measurement": "stimulus generalization of fentanyl", "setting": "[1]; pretreatment with 10 or 40 mg/kg Compound 95", "value": "did not affect"},
      {"measurement": "opioid-induced increases in PCO2", "setting": "[2]", "value": "some attenuation"},
      {"measurement": "opioid-induced PCO2 levels", "setting": "[3]", "value": "significant decreases"},
      {"measurement": "opioid-induced PCO2 levels", "setting": "[4]", "value": "reductions in the opioid-induced PCO2 levels"}
    ]}
  ]
}
